Source: ChEMBL document CHEMBL3853309, “Lovastatin Analogues from the Soil-Derived Fungus Aspergillus sclerotiorum PSU-RSPG178” (J Nat Prod, 2016)
pIC50: −log10 of the molar value.

Molecular target: T1, 3-hydroxy-3-methylglutaryl-coenzyme A reductase (Homo sapiens, UniProt P04035)
T1 sequence (P04035 whole entry): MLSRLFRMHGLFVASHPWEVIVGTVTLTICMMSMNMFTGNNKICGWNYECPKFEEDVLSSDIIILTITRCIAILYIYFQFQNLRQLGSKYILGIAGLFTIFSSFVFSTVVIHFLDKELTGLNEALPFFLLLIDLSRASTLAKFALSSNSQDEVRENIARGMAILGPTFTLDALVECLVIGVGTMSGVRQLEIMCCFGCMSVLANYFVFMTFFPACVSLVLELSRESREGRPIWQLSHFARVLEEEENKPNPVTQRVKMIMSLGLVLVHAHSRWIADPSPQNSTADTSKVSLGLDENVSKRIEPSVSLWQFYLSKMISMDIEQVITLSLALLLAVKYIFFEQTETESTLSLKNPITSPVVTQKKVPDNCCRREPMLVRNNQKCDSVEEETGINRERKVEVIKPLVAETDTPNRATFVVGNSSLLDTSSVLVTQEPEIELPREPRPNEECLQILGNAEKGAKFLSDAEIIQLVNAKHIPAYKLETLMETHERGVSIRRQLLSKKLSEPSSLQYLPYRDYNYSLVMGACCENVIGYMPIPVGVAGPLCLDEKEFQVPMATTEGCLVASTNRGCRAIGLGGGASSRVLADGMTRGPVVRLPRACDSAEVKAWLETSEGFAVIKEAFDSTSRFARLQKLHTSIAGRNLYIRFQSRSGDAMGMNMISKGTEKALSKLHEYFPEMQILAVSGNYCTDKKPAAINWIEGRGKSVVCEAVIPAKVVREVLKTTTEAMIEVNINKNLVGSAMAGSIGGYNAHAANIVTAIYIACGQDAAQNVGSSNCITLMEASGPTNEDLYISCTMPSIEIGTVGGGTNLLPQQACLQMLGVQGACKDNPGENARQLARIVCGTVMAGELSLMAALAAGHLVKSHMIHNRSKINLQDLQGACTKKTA
Assay: Inhibition of human HMGR catalytic domain using 800 uM HMG-CoA as substrate measured every 20 secs for 10 mins
Outline: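 Dose-response format of the kit assay: 1× buffer, NADPH, 800 μM HMG-CoA, graded compound concentrations, human HMGR catalytic domain 0.6 μM final added to start at 37 °C. A340 read every 20 s over 10 min; percent inhibition of control used to derive IC50; n = 3.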

With CC[C@H](C)C(=O)O[C@H]1C[C@H](O)C=C2C=C[C@H](C)[C@H](CC[C@@H](O)C[C@@H](O)CC(=O)O)[C@H]21 [PRAVASTATIN] the pIC50 was 6.40.
